{
  "source": "patent US20140100216A1",
  "about": "“STIMULATORS OF INCRETIN HORMONES SECRETION, METHOD FOR PREPARATION AND USE THEREOF” (priority 2011, published 2014)",
  "test_system": "DIO-mice C57BL/6J",
  "settings": "Sitagliptin 30 mg/kg peroral 25 min before sugar, with TGR5 receptors agonist and glucose",
  "data": [
    {"smiles": "N[C@@H](CC(=O)N1CCn2c(nnc2C(F)(F)F)C1)Cc1cc(F)c(F)cc1F", "note": "[Sitagliptin, reference compound]", "values": [
      {"measurement": "GLP-1 concentration in plasma (stability of GLP-1)", "value": "maintains high GLP-1 concentration in plasma"}
    ]}
  ]
}
